Assay results from ChEMBL document CHEMBL4261646, “Bisphosphonate Inhibitors of Mammalian Glycolytic Aldolase” (J Med Chem, 2018).

Species: Homo sapiens

SMILES: O=P([O-])([O-])Oc1ccc2cc(C(P(=O)([O-])[O-])P(=O)([O-])[O-])ccc2c1.[Li+].[Li+].[Li+].[Li+].[Li+].[Li+]
- Km: 2.7 µM
